## Yeast mating assay 2: variants of the scFv Ab-91

The measurements come from Engelhart et al. 2022 (doi:10.1038/s41597-022-01779-4) through the FLAb antibody collection.

Target: peptide PDVDLGDISGINAS, taken from heptad repeat 2 (HR2) of SARS-CoV-2 spike.

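The library (AAYL51) carries one to three amino acid substitutions per variant, with no insertions or deletions. AlphaSeq pools MATa yeast showing the antibodies with MATalpha yeast showing the peptide. Binding brings cells together so that they mate, and sequencing counts the barcode pairs among the diploids. The ratio of observed to expected reads was calibrated, replicate by replicate, on BCL2-family standards whose Kd was known from biolayer interferometry. Each pool was mated in three replicate cultures.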

Parent scFv Ab-91: VL joined to VH by the linker GGGGSGGGGSGGGGS. Changes lie in the heavy chain CDRs alone.
VL: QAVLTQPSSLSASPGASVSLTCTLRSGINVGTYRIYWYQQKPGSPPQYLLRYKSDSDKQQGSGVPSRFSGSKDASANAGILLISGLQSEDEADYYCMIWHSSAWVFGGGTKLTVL
VH: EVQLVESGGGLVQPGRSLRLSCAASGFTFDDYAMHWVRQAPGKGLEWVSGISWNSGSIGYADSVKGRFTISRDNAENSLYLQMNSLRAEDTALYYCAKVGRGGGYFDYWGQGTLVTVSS

Positions count from residue 1 of the parent VH; H35Y puts Y in place of H. Each Kd is an estimate from the mating assay, the geometric mean of the replicates in which the pair was seen; lower is stronger. An entry "nd" has no value in the source: the pair was not observed among the diploids in any replicate. This suggests poor binding but is not conclusive. Three control strains display no target. For library AAYL51, 21% of the pairings with them gave a signal, with a median of 34 µM and one signal in twenty below 1.8 µM, so weak values seen in few replicates may be background. Also given: how often the same scFv was detected with the empty control strains. For reference, the parent read 72 nM as the reference entry and 7.5 nM as a member of this library.

| changes | Kd (apparent) | detected | signal with controls |
|---|---|---|---|
| H35Y+Y105I | nd | 0/3 | 1/9 |
| M34D+G50E+G104A | nd | 0/3 | 0/9 |
| R101M+G102A+Y108R | 9.6 µM | 1/3 | 1/9 |
| D31T+G103L+D107C | nd | 0/3 | 0/9 |
| I51E+W53I+S63K | 78 µM | 2/3 | 2/9 |
| G26Q+V64Y+V99W | nd | 0/3 | 0/9 |
| F29P+S55E+R101D | nd | 0/3 | 1/9 |
| N54C+V99R | nd | 0/3 | 0/9 |
| T28W+G103S+Y108M | nd | 0/3 | 0/9 |
| H35A+A61Y+D62S | nd | 0/3 | 0/9 |
| S52Q+V64A+D107L | nd | 0/3 | 0/9 |
| F29D+G103A+D107T | nd | 0/3 | 1/9 |
| Y32S+A33H+G56T | 2.9 µM | 1/3 | 1/9 |
| G26A+G50C+Y60N | 86 µM | 2/3 | 5/9 |
| Y32K+M34A+I58R | nd | 0/3 | 1/9 |
| G103W+F106D+D107K | nd | 0/3 | 0/9 |
| G26Q+Y60M+G100Y | nd | 0/3 | 0/9 |
| D30E+G102M+G104M | 180 nM | 3/3 | 2/9 |
| G59P+R101C | 12 µM | 1/3 | 4/9 |
| Y32E+M34T+Y108K | nd | 0/3 | 1/9 |
| F27K+D31I+G59I | 400 µM | 1/3 | 0/9 |
| A33H+G50L+G103T | nd | 0/3 | 1/9 |
| G56M+G59R+D107C | 59 µM | 1/3 | 3/9 |
| F27C+A33W+S57D | 12 µM | 3/3 | 3/9 |
| D31G+S57E+Y105E | nd | 0/3 | 0/9 |
| Y32K+S57P | 410 µM | 3/3 | 4/9 |
| A33P+W53L+D62H | 16 µM | 1/3 | 5/9 |
| D30H+F106I+Y108K | 88 µM | 3/3 | 6/9 |
| D30K+V99L+D107F | 4.1 µM | 1/3 | 0/9 |
| W53C+R101I+G103D | 32 µM | 3/3 | 5/9 |
| F27M+D31M+S55N | 94 µM | 3/3 | 1/9 |
| V99Y+G102A+Y105I | 3.2 nM | 3/3 | 2/9 |
| D30S+V64I | 37 nM | 3/3 | 1/9 |
| F29I+H35N+V99E | 86 µM | 1/3 | 0/9 |
| D62T+Y105K+D107A | 49 nM | 3/3 | 1/9 |
| A61Q+V99K+Y108N | nd | 0/3 | 4/9 |
| Y32C+K65V | 11 µM | 2/3 | 3/9 |
| G50S+G56V+S63M | 8.9 µM | 1/3 | 1/9 |
| Y32A+I51F+G56V | nd | 0/3 | 8/9 |
| N54G+Y60V+R101M | 12 µM | 1/3 | 0/9 |
| D30P+S55D+G59N | 130 µM | 2/3 | 3/9 |
| T28K+H35K+A61N | nd | 0/3 | 0/9 |
| K65Y+G104N+D107G | nd | 0/3 | 1/9 |
| M34H+Y108R | nd | 0/3 | 0/9 |
| T28M+Y32E+S57H | 8.5 µM | 1/3 | 2/9 |
| N54I+A61N+G104L | nd | 0/3 | 0/9 |
| S57D+K65A+G104L | nd | 0/3 | 0/9 |
| F27I+I51M | 38 µM | 2/3 | 2/9 |
| S52C+Y60C+Y105H | 31 µM | 1/3 | 0/9 |
| D30M+F106E | 27 nM | 3/3 | 0/9 |
| S52A+S57L+Y108V | 78 µM | 3/3 | 3/9 |
| M34F+S52E+G103L | nd | 0/3 | 1/9 |
| D30I+D62K | nd | 0/3 | 2/9 |
| S55D+Y60R+G100P | nd | 0/3 | 0/9 |
| S55Q+D62Q+Y108R | 37 nM | 3/3 | 4/9 |
| M34A+Y60I+G103L | 12 µM | 1/3 | 4/9 |
| G103S+G104Y+Y105V | nd | 0/3 | 0/9 |
| S52H+I58S+V99G | 1.0 µM | 1/3 | 0/9 |
| N54Y+S55N+F106T | nd | 0/3 | 2/9 |
| G50P+K65G+Y108F | 130 µM | 3/3 | 4/9 |
| G26R+T28G | 69 µM | 2/3 | 4/9 |
| G50Y+G59A+Y60G | 46 µM | 1/3 | 0/9 |
| S52R+S55P+G102K | nd | 0/3 | 0/9 |
| D30M+Y32A+N54S | 19 µM | 3/3 | 4/9 |
| G50A+V64P+F106N | 35 µM | 1/3 | 3/9 |

Picked from the list: the 8 lowest averages where every replicate gave a value.

| changes | Kd (apparent) | detected | signal with controls |
|---|---|---|---|
| V99Y+G102A+Y105I | 3.2 nM | 3/3 | 2/9 |
| D30M+F106E | 27 nM | 3/3 | 0/9 |
| S55Q+D62Q+Y108R | 37 nM | 3/3 | 4/9 |
| D30S+V64I | 37 nM | 3/3 | 1/9 |
| D62T+Y105K+D107A | 49 nM | 3/3 | 1/9 |
| D30E+G102M+G104M | 180 nM | 3/3 | 2/9 |
| F27C+A33W+S57D | 12 µM | 3/3 | 3/9 |
| D30M+Y32A+N54S | 19 µM | 3/3 | 4/9 |